Source: patent US20110257084A1

Molecular target: GLP-1 receptor, the receptor of insulin-secreting cells (INS-1 cells) (UniProt P32301)
Assay: competitive radioligand binding on INS-1 cells; displacement of 30 pM 125I-exendin-4 (9-39), gamma counting

Substance exendin-4 (peptide) has an EC50 of 0.9 nM.
